# Apparent affinities of Ab-14 variants for a coronavirus HR2 peptide

Antigen: PDVDLGDISGINAS, a 14-residue peptide of the SARS-CoV-2 spike HR2 region.

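The parent was found by panning a naive human phage display library on the peptide. Variants in AAYL50 differ from the parent at up to three CDR positions; double and triple changes were sampled at random. AlphaSeq pools MATa yeast showing the antibodies with MATalpha yeast showing the peptide. After mating in shaken culture at 30 °C for 16 h, diploids were selected and their barcode pairs sequenced. Each replicate has its own calibration line, from reference interactions of the BCL2 family. Mating was done three times.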

Parent: Ab-14, a human scFv built as VH, a 15-residue (Gly4Ser)3 linker, VL. Only the CDRs of the light chain vary.
VH: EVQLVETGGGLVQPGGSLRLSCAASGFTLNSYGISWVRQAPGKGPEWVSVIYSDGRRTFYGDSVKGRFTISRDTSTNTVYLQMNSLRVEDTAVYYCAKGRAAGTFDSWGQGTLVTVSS
VL: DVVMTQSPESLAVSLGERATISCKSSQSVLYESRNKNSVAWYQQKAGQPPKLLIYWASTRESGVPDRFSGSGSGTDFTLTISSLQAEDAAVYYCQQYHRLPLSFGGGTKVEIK

Each variant is given by its three light chain CDRs, as the data file delimits them; those of the parent are KSSQSVLYESRNKNSVA, WASTRES, QQYHRLPLS.
Values are log10 of the apparent Kd in nM; lower means stronger binding.
Replicates are averaged; those with no signal do not enter the mean.
"no signal" marks a missing value. The strain was present, yet no cells mated with the target were sequenced in any replicate, which points to weak or no binding.
Empty control strains, which show no peptide, gave a signal in 18% of pairings with library AAYL50; the median was 4.19 and 95% of these signals were weaker than 2.99. No background was subtracted.
In this assay the parent's reference entry averaged 0.65; its copy inside this library read 1.68.

CDR-L1,CDR-L2,CDR-L3,"log10 Kd (nM), mean",detected
KSSQSVCYESRNKNSVA,WASTRES,QQYHRTPLS,0.85,3 of 3
KSSQKVLYESQNKNSVA,WASTGES,QQYHRLPLS,4.90,2 of 3
KSSQSVLYESRNKNSVA,TASTRES,QQYMRSPLS,no signal,0 of 3
KSSQSVLKESRIKNSVA,WASTRES,QQYHRLPLS,1.72,1 of 3
KSSQSVLYYSRNKNSVT,WASIRES,QQYHRLPLS,no signal,0 of 3
KSSQSVLYESRNKQSVA,WASYRES,QQYHRLPLS,1.65,3 of 3
KSSDSVLYESSNKNSVA,WASARES,QQYHRLPLS,0.70,3 of 3
KSSQSVLYESRNKSSVA,WASTRES,QQYHDLPLS,2.73,3 of 3
ISSQSVLYQSRNKNSVC,WASTRES,QQYHRLPLS,no signal,0 of 3
KSSQSTLYESRNKNTVA,WASTRIS,QQYHRLPLS,no signal,0 of 3
KSSQSVLYSSRNKNSVA,WLSTRES,QQYHRLHLS,3.32,2 of 3
KSSQSVLYESRNKQSVA,WASTRES,QQYHRQQLS,4.31,2 of 3
KSSQSVDYGSENKNSVA,WASTRES,QQYHRLPLS,0.72,3 of 3
KSSQSVLYEPRNKNSVA,WASIRES,QQYHRLPGS,0.95,3 of 3
KSSQSVMYESMNKNSVA,WASTRES,QCYHRLPLS,4.67,1 of 3
KSSQSVLYESRNKNSVR,WASTRES,QQTLRLPLS,no signal,0 of 3
KSSQSVLYEPRNKNSVA,TAMTRES,QQYHRLPLS,1.86,3 of 3
KSSQSVLYESRNKNSVT,WASTRRS,QQCHRLPLS,4.77,2 of 3
KSSQSVLYFSRNKNSVA,WASTRES,PQDHRLPLS,1.66,3 of 3
KSSQSILYESRNKNSVA,WASTRES,QQYHRNPMS,no signal,0 of 3
KSSQSVLYESRNKNSVA,PASTRES,QQHHRLPLS,4.18,1 of 3
KSSQSVLYESRNKNSSA,WASTRVS,QYYHRLPLS,no signal,0 of 3
KSSQSVLYESRPKNSVA,WASTRES,QQYHRLPFS,2.01,3 of 3
KSSSSVLYEFRNKNSVA,WASTRES,QQYHRLPLS,2.07,3 of 3
KSSQSRLYESRNKISVA,WASTRES,LQYHRLPLS,no signal,0 of 3
MSSVSVLYESRNKNSVA,WASTRES,QQYHRLPLS,1.13,3 of 3
NSSQSVLYESRNKGSVA,WASTRES,QQYHRLSLS,2.60,3 of 3
KSTCSVLNESRNKNSVA,WASTRES,QQYHRLPLS,2.10,3 of 3

The remaining entries, values ahead:

"log10 Kd (nM), mean",detected,CDR-L1,CDR-L2,CDR-L3
1.70,3 of 3,KSSQSVLFESRNKNSVA,WASTRES,QQNHRLPLS
3.67,1 of 3,KSSQSFLYESRNKNSVA,IASTRES,QSYHRLPLS
2.61,3 of 3,KSSQSNLLESRNKNSVA,WASTRES,GQYHRLPLS
1.57,3 of 3,KSSQVVLMESRNKNSVA,WASTRES,QQYHRLPIS
no signal,0 of 3,KSSQFVLYESRNKNSVA,WASTRES,QQYFRLMLS
no signal,0 of 3,KSEQSVLYVSRNKNSVA,WPSTRES,QQYHRLPLS
3.50,2 of 3,KSSQSVLAMSRCKNSVA,WASTRES,QQYHRLPLS
5.40,1 of 3,ESNQSVLYESRAKNSVA,WASTRES,QQYHRLPLS
3.49,1 of 3,KSSQSVLYESSNKTSVE,WASTRES,QQYHRLPLS
2.40,3 of 3,KSSQSVLYLMRNKNSVA,WASTRES,QQYFRLPLS
1.21,3 of 3,KSSSSVLYESRFKNSVA,WASTRES,QQYHRLKLS
no signal,0 of 3,KSSQSVLYESRNKNSNA,WASTRES,QQYHRLRLV
1.78,3 of 3,YSSQSVLYESRNKSSVA,WASTRES,QQYHREPLS
2.83,3 of 3,KSSQSFLQESRNKNSVA,WDSTRES,QQYHRLPLS
4.56,1 of 3,SSSQSVLYESRNKNSRA,WASTRMS,QQYHRLPLS
2.24,1 of 3,KSSQSVLYMSRNKNSVA,WASTRES,QQYHRCPLY
0.58,3 of 3,KSSQYVPYEDRNKNSVA,WASTRES,QQYHRLPLS
no signal,0 of 3,KSSQMVLYESRNKNSVA,WASMRES,QQYHRLDLS
0.49,3 of 3,KSSQEVLYESRNKNSVA,WASTREE,QQYHRLLLS
no signal,0 of 3,KSSQSVAYESRNKESVA,WASTRES,QQYHRLILS
1.97,3 of 3,KNSQSVLYESRNKNSVA,WASTRES,CQYHRLDLS
3.74,1 of 3,PHSQSVLYSSRNKNSVA,WASTRES,QQYHRLPLS
4.06,3 of 3,KSSQSVLYESRNKSSVA,WASDRES,CQYHRLPLS
no signal,0 of 3,KSSRSVLYESRNKNSCA,WACTRES,QQYHRLPLS
1.21,3 of 3,KSSQSVLYESRNKNSVA,WGSTRES,QQYHRLVLC
3.38,1 of 3,RSSQSVLYESRNKNSVQ,WISTRES,QQYHRLPLS
4.99,1 of 3,KSSLSVLYESRNKNSVA,WACTRES,QQVHRLPLS
3.21,1 of 3,KSSPSVAYESRNKNSVA,WASTRES,WQYHRLPLS

9 of these entries, quoted again:

| CDR-L1 | CDR-L2 | CDR-L3 | log10 Kd (nM), mean | detected |
|---|---|---|---|---|
| KSSQSVDYGSENKNSVA | WASTRES | QQYHRLPLS | 0.72 | 3 of 3 |
| KSSQSVLAMSRCKNSVA | WASTRES | QQYHRLPLS | 3.50 | 2 of 3 |
| KSSQYVPYEDRNKNSVA | WASTRES | QQYHRLPLS | 0.58 | 3 of 3 |
| KNSQSVLYESRNKNSVA | WASTRES | CQYHRLDLS | 1.97 | 3 of 3 |
| KSSQSVLYYSRNKNSVT | WASIRES | QQYHRLPLS | no signal | 0 of 3 |
| KSSSSVLYEFRNKNSVA | WASTRES | QQYHRLPLS | 2.07 | 3 of 3 |
| KSSQSVLKESRIKNSVA | WASTRES | QQYHRLPLS | 1.72 | 1 of 3 |
| KSSQSVLYESRNKNSVT | WASTRRS | QQCHRLPLS | 4.77 | 2 of 3 |
| KSSQSVMYESMNKNSVA | WASTRES | QCYHRLPLS | 4.67 | 1 of 3 |

Data: MIT Lincoln Laboratory AlphaSeq set, Engelhart et al. 2022, doi:10.1038/s41597-022-01779-4, as distributed in FLAb.